Measured values: PMC10326257 (Acta Pharmaceutica Sinica. B, 2023)

Test system: c-MET^Y1230H and c-MET^D1228N
Experiment: Western blot of c-MET and p-c-MET in Y1230H- or D1228N-EBC1 and Hs746T cells
Type: cell-based
Conditions: 1000 nmol/L, 48 h

CN1CCC(COc2cnc(-c3cccc(Cn4nc(-c5cccc(C#N)c5)ccc4=O)c3)nc2)CC1 [Tepotinib]
c-MET and p-c-MET level (Western blot): partially inhibited p-c-MET level
